Reference: article PMC5664251, “Synthesis and Cytotoxic Evaluation of Steroidal Copper (Cu (II)) Complexes” (Bioinorganic Chemistry and Applications, 2017)

How the values were obtained:
[1] = tested on: HEK-293T (normal kidney epithelial)
[2] = tested on: Bel-7404 (human liver carcinoma)

Row | Substance | IC50 [1] | IC50 [2]
1 | 3β-hydroxyoestrone-17-(2′-diazanyl)pyridine-Copper(II) [Compound 11] | 14 µM | 14 µM
2 | 3β-Hydroxypregnenolone-20-(2′-diazanyl) pyridine-Copper (II) [Compound 12] | 9 µM | 7 µM
